The results in this text go back to ChEMBL document CHEMBL2331553, “Discovery of N-[[1-[2-(tert-butylcarbamoylamino)ethyl]-4-(hydroxymethyl)-4-piperidyl]methyl]-3,5-dichloro-benzamide as a selective T-type calcium channel (Cav3.2) inhibitor” (Bioorg Med Chem Lett, 2013).

Chains of the proteins cited; added tags and fusions are not shown.
UniProt P05177, whole entry: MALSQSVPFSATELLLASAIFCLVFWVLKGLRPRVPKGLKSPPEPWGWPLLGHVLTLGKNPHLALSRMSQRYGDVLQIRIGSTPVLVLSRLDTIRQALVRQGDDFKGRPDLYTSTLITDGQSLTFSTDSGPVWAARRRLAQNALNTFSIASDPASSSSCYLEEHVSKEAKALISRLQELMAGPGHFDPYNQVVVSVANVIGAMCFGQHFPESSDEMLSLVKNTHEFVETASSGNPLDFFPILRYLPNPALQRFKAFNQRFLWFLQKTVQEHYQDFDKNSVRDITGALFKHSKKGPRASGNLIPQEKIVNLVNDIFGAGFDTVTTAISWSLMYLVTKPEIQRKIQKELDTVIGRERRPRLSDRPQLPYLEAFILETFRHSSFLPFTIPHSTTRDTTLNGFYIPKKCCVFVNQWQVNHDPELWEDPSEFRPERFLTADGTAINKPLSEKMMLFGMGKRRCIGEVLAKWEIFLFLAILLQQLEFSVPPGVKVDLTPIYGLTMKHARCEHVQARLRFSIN
UniProt P08684, whole entry: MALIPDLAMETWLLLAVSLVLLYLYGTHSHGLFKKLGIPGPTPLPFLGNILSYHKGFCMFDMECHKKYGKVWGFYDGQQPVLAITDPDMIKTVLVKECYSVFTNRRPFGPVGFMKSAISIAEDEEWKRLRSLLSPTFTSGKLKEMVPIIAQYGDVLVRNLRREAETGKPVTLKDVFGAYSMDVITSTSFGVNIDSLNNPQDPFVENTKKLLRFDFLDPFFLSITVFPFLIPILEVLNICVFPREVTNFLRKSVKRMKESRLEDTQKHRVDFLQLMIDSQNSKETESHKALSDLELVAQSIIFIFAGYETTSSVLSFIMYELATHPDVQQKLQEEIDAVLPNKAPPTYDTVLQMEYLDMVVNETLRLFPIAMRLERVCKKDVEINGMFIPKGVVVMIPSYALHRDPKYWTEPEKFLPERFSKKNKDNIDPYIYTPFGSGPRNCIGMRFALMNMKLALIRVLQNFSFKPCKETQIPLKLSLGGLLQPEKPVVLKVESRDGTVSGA

One assay addresses Cytochrome P450 1A2 (Homo sapiens, UniProt P05177). Put plainly: Inhibition of human recombinant CYP1A2. It is filed as ADME.
For a further assay, the target named is Cytochrome P450 3A4 (Homo sapiens, UniProt P08684). Kind of assay: Inhibition of human recombinant CYP3A4. It is filed as ADME.

`CC(C)(C)NC(=O)NCCN1CCC(CO)(CNC(=O)c2cc(Cl)cc(Cl)c2)CC1`: the IC50 at Cytochrome P450 1A2 and at Cytochrome P450 3A4 was greater than 10 µM each time.
